Data as given in publication PMC12903857 (Journal of the American Chemical Society, 2026).

Target: T1, 14-3-3σ, tagged with a Twin-Strep tag (UniProt P31947 1-248)
T1 sequence (looked up): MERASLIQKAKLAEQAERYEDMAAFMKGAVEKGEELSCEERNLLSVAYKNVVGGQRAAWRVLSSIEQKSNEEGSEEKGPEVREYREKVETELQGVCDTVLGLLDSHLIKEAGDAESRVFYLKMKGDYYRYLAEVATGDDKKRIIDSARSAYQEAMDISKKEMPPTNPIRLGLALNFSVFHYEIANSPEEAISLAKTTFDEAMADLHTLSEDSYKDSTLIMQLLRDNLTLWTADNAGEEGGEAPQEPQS
Assay: SPR; 14-3-3σ with Twin-Strep tag immobilized on a Strep-Tactin XT-coated chip; 2-fold dilution series of acetylated 12-mer peptides starting at 50 μM; kinetic- and affinity-based fitting
Conditions: both partners purified

- Kd: 2600 nM
Binder: QRSTSTPNVHMV (acetylated; phosphoserine at 259) [acetylated 12-mer C-RAF peptide]
